Columns and labels:
[1] = biological target: chymotrypsin (Bos taurus, UniProt P00766); experiment: in vitro; conditions: isolated enzyme chymotrypsin, pH 7.8, Remaining peak area (%)/chymotrypsin
Method: FIG. 18. […] At different time point, 25 μL aliquots was taken out, and 10% (v/v) TFA was added to terminate the reaction.
(§1) Mix by centrifugation at 8000 rpm for 30 seconds.
(§2) Arrange a certain volume of 0.05 μg/μL chymotrypsin solution in another sterile EP. Incubate the EP tubes containing peptides and enzymes at 37° C. for 5 min, and add 3 μL of […] solution to each EP tube containing peptides and mix well. Start timing and extract 25 μL of reaction solution at 1.5, 3.0, 4.5, 6.0 and 9.0 min later, respectively. Add 3.75 μL of 10% TFA to terminate the reaction and mix well by centrifugation at 8000 rpm for 30 seconds.
(§3) Arrange a certain volume of 0.05 μg/μL chymotrypsin solution in another sterile EP. Incubate the EP tubes containing peptides and enzymes at 37° C. for 5 min, and then add 4.5 μL of chymotrypsin solution to each EP tube containing peptides and mix well. Start timing and extract 25 μL of reaction solution at 1.5, 3.0, 4.5, 6.0, 9.0, 15.0, 30.0, and 60.0 min later, respectively. Add 3.75 μL of 10% TFA to terminate the reaction and mix well by centrifugation at 8000 rpm for 30 seconds.
(§4) Referring to the experimental method in Example 5, in vitro stability of salmon Calcitonin analogs with oral administration activity to the enzymatic hydrolysis by trypsin, chymotrypsin and elastase were performed.
(§5) Referring to the experimental method in Example 5, in vitro stability of IL-17A inhibitory peptides towards the enzymatic hydrolysis by trypsin, chymotrypsin and elastase were performed.

[2] = biological target: DPP-IV (Homo sapiens, UniProt P27487); experiment: Tolerance of GLP-1 and its analogues to DPP-IV (RP-HPLC remaining peak area); type: in vitro ADME; conditions: peptide 25 μM, DPP-IV 0.5 ng/μL, 37° C.; for Remaining peak area (%)/DPP-IV: 0.0 h; for remaining at 0.5 h, 25 μM / remaining at 2 h, 25 μM / remaining at 4 h, 25 μM / remaining at 8 h, 25 μM / remaining at 12 h, 25 μM: isolated DPP-IV enzyme in buffer, pH 8
Method: as §1
(2) Arrange a certain volume of 0.005 μg/μL DPP-IV solution in another sterile EP.

[3] = biological target: T1, trypsin (Bos taurus, UniProt P00760); experiment: in vitro; conditions: isolated enzyme trypsin, pH 7.8
T1 sequence (P00760 24-246): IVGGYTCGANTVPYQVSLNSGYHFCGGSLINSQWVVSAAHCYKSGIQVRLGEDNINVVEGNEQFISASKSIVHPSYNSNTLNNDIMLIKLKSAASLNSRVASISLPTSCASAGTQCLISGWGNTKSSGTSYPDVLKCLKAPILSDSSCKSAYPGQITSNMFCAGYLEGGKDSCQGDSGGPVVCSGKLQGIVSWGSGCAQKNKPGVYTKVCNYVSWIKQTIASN
Method: FIG. 17. […] At different time point, 25 μL aliquots was taken out, and 10% (v/v) TFA was added to terminate the reaction.
as §1
as §2, with “0.05 μg/μL trypsin solution in” for “0.05 μg/μL chymotrypsin solution in”, “min, and separately add 6” for “min, and add 3”, “separately add 6 μL of” for “and add 3 μL of”
as §3, with “μg/μL trypsin” for “μg/μL chymotrypsin”, “and” for “and then”, “add 9” for “add 4.5”, “of trypsin” for “of chymotrypsin”
as §4, §5

[4] = biological target: NEP24.11 (Homo sapiens, UniProt P08473); experiment: Tolerance of GLP-1 and its analogues to NEP24.11 (RP-HPLC remaining peak area); type: in vitro ADME; conditions: peptide 30 μM, NEP24.11 1.0 ng/μL, 37° C.; for Remaining peak area (%)/NEP24.11: 0.0 h; for remaining at 0.5 h, 30 μM / remaining at 2 h, 30 μM / remaining at 4 h, 30 μM / remaining at 8 h, 30 μM: isolated NEP24.11 enzyme in buffer; for remaining at 0.5 h, 30 μM: pH 7.4, 0.5 h; for remaining at 2 h, 30 μM: pH 7.4, 2.0 h; for remaining at 4 h, 30 μM: pH 7.4, 4.0 h; for remaining at 8 h, 30 μM: pH 7.4, 8.0 h
Method: as §1
Arrange a certain volume of 0.04 μg/μL NEP24.11 enzyme solution in another sterile EP.

SMILES	remaining at 0.025 h, 60 μM [1] [%]	remaining at 0.05 h, 60 μM [1] [%]	remaining at 0.075 h, 60 μM [1] [%]	remaining at 0.1 h, 60 μM [1] [%]	remaining at 0.15 h, 60 μM [1] [%]	Remaining peak area (%)/DPP-IV [2] [%]	remaining at 0.5 h, 25 μM [2] [%]	remaining at 2 h, 25 μM [2] [%]	remaining at 4 h, 25 μM [2] [%]	remaining at 8 h, 25 μM [2] [%]	remaining at 0.025 h, 60 μM [3] [%]	remaining at 0.05 h, 60 μM [3] [%]	remaining at 0.075 h, 60 μM [3] [%]	remaining at 0.1 h, 60 μM [3] [%]	remaining at 0.15 h, 60 μM [3] [%]	Remaining peak area (%)/NEP24.11 [4] [%]	remaining at 0.5 h, 30 μM [4] [%]	remaining at 2 h, 30 μM [4] [%]	remaining at 4 h, 30 μM [4] [%]	remaining at 8 h, 30 μM [4] [%]	other results
CC[C@H](C)[C@H](NC(=O)[C@H](Cc1ccccc1)NC(=O)[C@H](CCC(=O)O)NC(=O)[C@H](CCCCN)NC(=O)[C@H](C)NC(=O)[C@H](C)NC(=O)[C@H](CCC(N)=O)NC(=O)CNC(=O)[C@H](CCC(=O)O)NC(=O)[C@H](CC(C)C)NC(=O)[C@H](Cc1ccc(O)cc1)NC(=O)[C@H](CO)NC(=O)[C@H](CO)NC(=O)[C@@H](NC(=O)[C@H](CC(=O)O)NC(=O)[C@H](CO)NC(=O)[C@@H](NC(=O)[C@H](Cc1ccccc1)NC(=O)[C@@H](NC(=O)CNC(=O)[C@H](CCC(=O)O)NC(=O)[C@H](C)NC(=O)[C@H](Cc1c[nH]cn1)NC(=O)CNC(=O)CNC(=O)[C@@H](NC(=O)[C@@H]1CCCN1C(=O)[C@@H](NC(=O)CN)[C@@H](C)CC)[C@@H](C)CC)[C@@H](C)O)[C@@H](C)O)C(C)C)C(=O)N[C@@H](C)C(=O)N[C@@H](Cc1c[nH]c2ccccc12)C(=O)N[C@@H](CC(C)C)C(=O)N[C@H](C(=O)N[C@@H](CCCCN)C(=O)NCC(=O)N[C@@H](CCCNC(=N)N)C(=O)NCC(=O)NCC(=O)N[C@@H](CCCCN)C(=O)O)C(C)C [D-GLP-1]	77.3 ± 7	83.8 ± 3.6	77.9 ± 3.1	77.8 ± 1	77.4 ± 1.4	100.0 ± 0.0	78.1 ± 1.8	82.2 ± 3.4	79.8 ± 3.4	82.6 ± 2	51.9 ± 3.7	36 ± 1.4	22.4 ± 1.4	14.1 ± 1.5	4.7 ± 0.8	100.0 ± 0.0	77.8 ± 7.8	53.7 ± 8.9	49 ± 7.3	31.3 ± 6.4	remaining prototype peptide after DPP-IV treatment ([2]; 12 hours): 85.6%; remaining at 12 h, 25 μM [2]: 85.6 ± 2%
CC[C@H](C)[C@H](NC(=O)[C@H](Cc1ccccc1)NC(=O)[C@H](CCC(=O)O)NC(=O)[C@H](CCCCN)NC(=O)[C@H](C)NC(=O)[C@H](C)NC(=O)[C@H](CCC(N)=O)NC(=O)CNC(=O)[C@H](CCC(=O)O)NC(=O)[C@H](CC(C)C)NC(=O)[C@H](Cc1ccc(O)cc1)NC(=O)[C@H](CO)NC(=O)[C@H](CO)NC(=O)[C@@H](NC(=O)[C@H](CC(=O)O)NC(=O)[C@H](CO)NC(=O)[C@@H](NC(=O)[C@H](Cc1ccccc1)NC(=O)[C@@H](NC(=O)CNC(=O)[C@H](CCC(=O)O)NC(=O)[C@H](C)NC(=O)[C@H](Cc1c[nH]cn1)NC(=O)CNC(=O)CNC(=O)[C@@H](NC(=O)[C@@H]1CCCN1C(=O)[C@@H](NC(=O)CNC(=O)CNC(=O)[C@H](CCCNC(=N)N)NC(=O)[C@H](CO)NC(=O)[C@H](Cc1ccccc1)NC(=O)[C@H](CCCNC(=N)N)NC(=O)[C@H](CCC(N)=O)NC(=O)CNC(=O)CN)[C@@H](C)CC)[C@@H](C)CC)[C@@H](C)O)[C@@H](C)O)C(C)C)C(=O)N[C@@H](C)C(=O)N[C@@H](Cc1c[nH]c2ccccc12)C(=O)N[C@@H](CC(C)C)C(=O)N[C@H](C(=O)N[C@@H](CCCCN)C(=O)NCC(=O)N[C@@H](CCCNC(=N)N)C(=O)NCC(=O)NCC(=O)N[C@@H](CCCCN)C(=O)O)C(C)C [DN-GLP-1]	76.3 ± 2	62 ± 1.7	46.1 ± 0.9	31.9 ± 2.5	9 ± 0.8	100.0 ± 0.0	100 ± 4.2	98.6 ± 5.1	97.8 ± 2.7	97.8 ± 2.2	1 ± 0.1	0	0	0	0	100.0 ± 0.0	86.6 ± 4.2	73.3 ± 2.1	69.3 ± 5.9	58.9 ± 4.9	remaining at 12 h, 25 μM [2]: 98.1 ± 7.1%
CC[C@H](C)[C@H](NC(=O)[C@H](Cc1ccccc1)NC(=O)[C@H](CCC(=O)O)NC(=O)[C@H](CCCCN)NC(=O)[C@H](C)NC(=O)[C@H](C)NC(=O)[C@H](CCC(N)=O)NC(=O)CNC(=O)[C@H](CCC(=O)O)NC(=O)[C@H](CC(C)C)NC(=O)[C@H](Cc1ccc(O)cc1)NC(=O)[C@H](CO)NC(=O)[C@H](CO)NC(=O)[C@@H](NC(=O)[C@H](CC(=O)O)NC(=O)[C@H](CO)NC(=O)[C@@H](NC(=O)[C@H](Cc1ccccc1)NC(=O)[C@@H](NC(=O)CNC(=O)[C@H](CCC(=O)O)NC(=O)[C@H](C)NC(=O)[C@H](Cc1c[nH]cn1)NC(=O)CNC(=O)CNC(=O)[C@H](CCCNC(=N)N)NC(=O)[C@H](CO)NC(=O)[C@H](Cc1ccccc1)NC(=O)[C@H](CCCNC(=N)N)NC(=O)[C@H](CCC(N)=O)NC(=O)CNC(=O)CNC(=O)[C@@H]1CSSC[C@H](NC(=O)CNC(=O)CN)C(=O)N2CCC[C@H]2C(=O)N[C@@H](CCCCN)C(=O)N[C@@H]([C@@H](C)CC)C(=O)N[C@@H](CC(C)C)C(=O)N[C@@H](CCC(N)=O)C(=O)N[C@@H](CCCNC(=N)N)C(=O)N1)[C@@H](C)O)[C@@H](C)O)C(C)C)C(=O)N[C@@H](C)C(=O)N[C@@H](Cc1c[nH]c2ccccc12)C(=O)N[C@@H](CC(C)C)C(=O)N[C@H](C(=O)N[C@@H](CCCCN)C(=O)NCC(=O)N[C@@H](CCCNC(=N)N)C(=O)NCC(=O)NCC(=O)N[C@@H](CCCCN)C(=O)O)C(C)C [NT-GLP-1]	95.4 ± 4.3	84.6 ± 3.2	85.5 ± 2.8	95.1 ± 0.9	79.7 ± 5.2						82.4 ± 3.1	72.1 ± 1.8	60.2 ± 4.9	42.2 ± 5.3	31 ± 3.1	100.0 ± 0.0	77.9 ± 7.5	58.3 ± 4.8	54.3 ± 3.7	48.8 ± 6.2	
